# Data as given in patent US9517211B2.
# Some compounds may have been tested in ways that are not shown here.
# Experiment: Solubility of fentanyl in softening agents
# Conditions: liquid paraffin versus polybutene
compound,measurement,value
CCC(=O)N(c1ccccc1)C1CCN(CCc2ccccc2)CC1,solubility of fentanyl in liquid paraffin and polybutene,higher in polybutene
